## Antibody variant affinities, Ab-14 light chain, assay B

Values reported by Li et al. 2023, doi:10.1038/s41467-023-39022-2 (FLAb copy).

The target is the same throughout: PDVDLGDISGINAS, from the HR2 region of SARS-CoV-2 spike.

Parent: Ab-14, a human scFv built as VH, the linker GGGGSGGGGSGGGGS, VL. Only the CDRs of the light chain vary.
VH: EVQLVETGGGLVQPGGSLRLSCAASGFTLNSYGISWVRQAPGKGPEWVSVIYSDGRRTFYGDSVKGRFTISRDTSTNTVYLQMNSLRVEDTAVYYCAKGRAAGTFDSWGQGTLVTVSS
VL: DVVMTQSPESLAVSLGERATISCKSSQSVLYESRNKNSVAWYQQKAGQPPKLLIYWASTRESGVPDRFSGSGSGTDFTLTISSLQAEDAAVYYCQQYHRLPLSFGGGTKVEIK

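Phage display of a naive human antibody library on the peptide gave the parent. These sequences belong to a second round, designed from the earlier measurements on random variants of the parent. Several design methods are mixed in this list. In AlphaSeq, yeast of one mating type display the scFv and yeast of the other type display the target. Binding brings cells together so that they mate, and sequencing counts the barcode pairs among the diploids. Each replicate has its own calibration line, from reference interactions of the BCL2 family. The assay was run in six technical replicates.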

Variants are written as CDR1, CDR2 and CDR3 of the light chain (limits as in the source). Parent: KSSQSVLYESRNKNSVA, WASTRES, QQYHRLPLS. This list holds designs with more than six substitutions. The read-out is the apparent dissociation constant on a log10 scale (nM): the lower, the stronger. The mean shown is taken over the replicates in which the pair was detected. Where no diploid with the target was found in any replicate, the entry reads "no signal": below detection, most likely a poor binder, though not proof of it. Entries are sorted by rising average, undetected variants last.

CDR-L1,CDR-L2,CDR-L3,mean log10 Kd (nM),detected,control signals
KLEGSHLYESRNANSVA,NASTRMS,QQYKRLPLS,-0.76,6 of 6,0 of 18
MISQLINMGSFAINSVA,QASIRNE,QQYDRLPLM,-0.40,6 of 6,0 of 18
KASDGELYESRDDNSVA,DASKRLS,QQYHRLPLS,-0.20,6 of 6,3 of 18
KLSASQLYESRASNAVA,QASTRMD,QQYHRLPLS,-0.19,6 of 6,1 of 18
KLAGVTEYEMRNKNSVA,QMTTRES,QQYTRLPLS,-0.11,6 of 6,1 of 18
KLQQSMDYESRNDNSVA,HASMRES,QQYHRLPLF,-0.07,6 of 6,2 of 18
HQWPSVLYESRNKNSVA,NGSTREV,QQYHRLPLS,-0.06,6 of 6,3 of 18
KLYQATEMTSRMRNNVA,DLNERER,QQYFRLPLS,0.12,6 of 6,0 of 18
KLVMSELYESRQKNSVA,GASQREM,QQYHRLPLS,0.16,6 of 6,0 of 18
SFSQSVLYEQVHKNNVA,QTSTRES,QQYDHLPLS,0.28,6 of 6,0 of 18
NISINQMDEYKMRSNIA,NTSWKAM,QQYFHLPLM,0.34,6 of 6,1 of 18
KLQQDVLYGSRNKNSVA,QASTRMV,QAYHRLPLS,0.34,6 of 6,0 of 18
KLTQVSGHLSAIKNNVA,EMVTREN,QQYNRLPLS,0.38,6 of 6,1 of 18
KLSNSYEYQSRNMNSVA,NASTRLE,QQYHRLPLS,0.40,6 of 6,2 of 18
KLTSVTGTEKVRGNNVA,EMETRES,QQYNRLPLS,0.41,6 of 6,0 of 18
MFSQLFMYGSRNYNSVA,QASTREN,QQYHRLPLI,0.43,6 of 6,1 of 18
NLMHHQGRYDVWKESIA,EASIRAS,QQYQRLPLA,0.45,6 of 6,1 of 18
TISQLMWYESRNKNNVA,GTSTRES,QCYHRLPLS,0.49,6 of 6,2 of 18
VLHNTCSDYDMYRNSIA,DAQHREA,QQYYRLPFT,0.51,6 of 6,3 of 18
KVSQEYLGESRNMNSVA,NASTREQ,QQYHRLPLS,0.53,6 of 6,0 of 18
QLTMITGHMSVSKNNVA,EMETRVN,QQYDRLPLS,0.55,6 of 6,1 of 18
KMSQSDLMEMRNMNSVA,NASTRQM,QQYHRLPLS,0.55,6 of 6,1 of 18
KLQNFSQEYNKMWNNIA,DMTMKHT,QQYNRLPLE,0.56,6 of 6,0 of 18
TFDQMGEQKGMNTNSVA,AGNIVRI,QQYSRLPFS,0.56,6 of 6,0 of 18
MLSQMWGIGMKAKNSVA,QVSTRFE,QQYDRLPLI,0.57,6 of 6,2 of 18
MISQVMNTLTRNGDNVA,DLAEREQ,QQYFRLPLS,0.58,6 of 6,2 of 18
KFSYSVLYEDRNQNSVA,NASQREQ,QQYHRLPLS,0.62,6 of 6,0 of 18
MIGQMLGWESNKIHSVA,QANLRVE,QQYDRLPLE,0.64,6 of 6,1 of 18
KISQMAKVGATHSNSIA,EEVTRAK,QQYHRLPLA,0.73,6 of 6,0 of 18
KSSGSVLGEDWNSNSVA,NASKRES,QQYHRLPLS,0.73,6 of 6,0 of 18
ALSGWEWAGNENINAVA,DRSALEW,QQYQRLPLS,0.74,6 of 6,0 of 18
HISANMWMQGSQWDAVA,QGDIANN,QQYARLPLS,0.78,6 of 6,0 of 18
KIGMTLNFEEMKKNNVA,DLVAREN,QQYHRLPLS,0.80,6 of 6,0 of 18
KLQPSELYEERNDNSVA,QASQRES,QDYHRLPLS,0.87,6 of 6,1 of 18
MLSQMWALGTKVKNSVA,QASMRFN,QQYERLPFM,0.89,6 of 6,1 of 18
KLMPSWEYESRMKNSVA,EASVREE,QQYHRLPLS,0.90,6 of 6,0 of 18
VIDAFNFSNGQKWNNVA,QTSVRLQ,QYYQRLPLM,0.92,6 of 6,5 of 18
QLDQAYRVGALWTQSIA,HGSMRVQ,QCYNRLPLS,0.94,6 of 6,0 of 18
QIYQAMHTLSQMKDNVA,DVNERGR,QQYFRLPLS,0.96,6 of 6,0 of 18
MISQLYNMGQFAINSVA,QASTRNQ,QQYDRLPLM,1.04,6 of 6,2 of 18
KLSSITGHMSTVKNNVA,EMETREN,QQYNRLPLA,1.10,6 of 6,1 of 18
MISQLMNMGQFAINSVA,QASIRNA,QQYDRLPLA,1.12,6 of 6,0 of 18
KISQMVRVGSTVSNSIA,EEATRAK,QQYHRLPLF,1.12,5 of 6,0 of 18
MVTMNLRYGDAWQNPIA,EASHLET,QQYAHLPLG,1.19,1 of 6,0 of 18
YIDQASMTENDKGNSIA,EENHKYN,QQYFQLPLI,1.22,3 of 6,1 of 18
MISQLMNMGQFAINSVA,QATIRNS,QQYDRLPLM,1.24,4 of 6,0 of 18
MISQVLNTLTRTGNNVA,DLQEREQ,QQYFRLPLS,1.33,1 of 6,0 of 18
KISQMIRVGSTHSNSIA,EEVTRAK,QQYHRLPLA,1.34,6 of 6,2 of 18
HITMGMYVHGRHHSSIA,QAETREK,QQYDRLPLM,1.70,6 of 6,1 of 18
KISFQYRYEQLQKNSIA,EVQTRLK,QQYHRLPLS,1.74,5 of 6,0 of 18
IFSQSVLMGNMTRNSVA,QASQRFN,QQYDRLPLI,1.76,6 of 6,0 of 18
QLSVFELQGMGWAQSIA,QADHRTE,QQFARLPLV,1.77,6 of 6,0 of 18
SMRAVGCDWQRNHSNIA,DATQIED,QQYVMLPLS,1.79,6 of 6,0 of 18
QLAVNRLMNYTMNNAIA,GKTLRVD,QQYARLPLS,2.05,6 of 6,0 of 18
KLSQSVLFWGKAINSVA,EMETREY,QQYDRLPLS,2.14,5 of 6,0 of 18
VLGQNCSEYEMYCASIA,DAQHREA,QQYYRLPFV,2.26,6 of 6,0 of 18
HIGLATMSEETVRNSVA,NNSTREE,QQYDRLPLS,2.36,5 of 6,0 of 18
RLTQQMYGFNRHANAIA,SGAERQW,QQYARLPIS,2.49,5 of 6,0 of 18
TIGHTLMQGVRNSSNVA,EVSQRLN,QQYDRLPLI,2.58,6 of 6,0 of 18
MIYGAQRELGLTANSIA,DNVTRYN,QQYERLPLS,2.65,2 of 6,0 of 18
KLKTMPGEIPKEGNSIA,HAELRTP,QQYHRLPLI,3.01,2 of 6,0 of 18
KVSQSVMLLQRNKNSVA,DNSTSGS,QQYHRLPLS,3.35,2 of 6,2 of 18
MISQVLNMLTREGNNVA,DLKERED,QQYFRLPLS,no signal,0 of 6,0 of 18
IVSQLMLVGIHAKNSIA,EAQMRLN,QQYDRLPLF,no signal,0 of 6,0 of 18
QLSVFELQGMGWMQSIA,QADHRTE,QQFARLPLV,no signal,0 of 6,0 of 18
KIDMSLNYESHALNSIA,EEVMHTA,QQYDKLPLF,no signal,0 of 6,0 of 18

6 of these entries, quoted again:

{"CDR-L1": "KLTSVTGTEKVRGNNVA", "CDR-L2": "EMETRES", "CDR-L3": "QQYNRLPLS", "mean log10 Kd (nM)": "0.41", "detected": "6 of 6", "control signals": "0 of 18"}
{"CDR-L1": "KMSQSDLMEMRNMNSVA", "CDR-L2": "NASTRQM", "CDR-L3": "QQYHRLPLS", "mean log10 Kd (nM)": "0.55", "detected": "6 of 6", "control signals": "1 of 18"}
{"CDR-L1": "KISFQYRYEQLQKNSIA", "CDR-L2": "EVQTRLK", "CDR-L3": "QQYHRLPLS", "mean log10 Kd (nM)": "1.74", "detected": "5 of 6", "control signals": "0 of 18"}
{"CDR-L1": "YIDQASMTENDKGNSIA", "CDR-L2": "EENHKYN", "CDR-L3": "QQYFQLPLI", "mean log10 Kd (nM)": "1.22", "detected": "3 of 6", "control signals": "1 of 18"}
{"CDR-L1": "KLMPSWEYESRMKNSVA", "CDR-L2": "EASVREE", "CDR-L3": "QQYHRLPLS", "mean log10 Kd (nM)": "0.90", "detected": "6 of 6", "control signals": "0 of 18"}
{"CDR-L1": "MISQVLNMLTREGNNVA", "CDR-L2": "DLKERED", "CDR-L3": "QQYFRLPLS", "mean log10 Kd (nM)": "no signal", "detected": "0 of 6", "control signals": "0 of 18"}

The authors averaged sequences with at least three values out of six and counted those with two or fewer as poor binders. Values of this round are not directly comparable with the first-round values of the same sequences. Nonspecific signal, from three strains lacking the peptide, appeared in 4% of pairings of all light chain designs, centred on 2.64 (5% of these signals below 1.59); values are not corrected for it. The control count says in how many pairings with the empty strains this scFv gave a signal.